Measured values from article PMC8630191, “Regulation of PP2A, PP4, and PP6 holoenzyme assembly by carboxyl-terminal methylation” (Scientific Reports, 2021).

Protein sequences, listed by entry. Tags and fused reporters are not part of them. Residues count along the entry.
UniProt P62714, 1-308, stated change not applied: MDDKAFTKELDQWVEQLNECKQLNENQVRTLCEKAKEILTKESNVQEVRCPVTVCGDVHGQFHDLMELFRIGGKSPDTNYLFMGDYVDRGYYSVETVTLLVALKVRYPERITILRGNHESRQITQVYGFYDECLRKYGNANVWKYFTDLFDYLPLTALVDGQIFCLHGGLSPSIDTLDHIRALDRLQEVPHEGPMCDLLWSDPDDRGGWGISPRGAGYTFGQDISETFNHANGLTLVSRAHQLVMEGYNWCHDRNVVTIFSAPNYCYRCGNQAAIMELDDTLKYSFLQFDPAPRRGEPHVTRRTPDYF

Molecular target: T1, 3xFLAG-tagged PP2Acβ ΔL mutant (Leu 309 deleted) (human, UniProt P62714, ΔL309)
T1 construct: PP2A catalytic subunit, beta isoform (PP2Acβ, PPP2CB), human, in p3XFLAG-CMV10; C-terminal Leu 309 deleted by inserting a stop codon; also called ΔL309
Experiment: affinity purification with mass spectrometry; 3xFLAG-tagged catalytic subunit (WT or ΔL) transfected in FreeStyle 293F cells; FLAG M2 affinity gel, 3 h at 4 °C; lysis and wash buffer 50 mM Tris pH 7.5, 500 mM NaCl, 0.5% Triton X-100; eluted with 3XFLAG peptide; label-free quantitative LC-MS/MS on unique peptides, three replicates
Conditions: partners not purified

B1: PR65α, PP2A scaffolding (A) subunit (natural protein)
chain: not shown
notes: PP2A scaffolding subunit A, alpha isoform (PR65α)
In the case of B1, the “fold reduction of binding, ΔL against WT” value is reported as ~4 fold.
